Experimental data taken from patent US9234176B2, “Chemically defined production of cardiomyocytes from pluripotent stem cells” (The Board of Trustees of the Leland Stanford Junior …, priority 2012, dated 2016).

Tested on: hiPSCs
Assay: Cardiac differentiation of hiPSCs in CDM3, optimisation of media and small molecules (TNNT2 flow cytometry)
Assay type: cell-based
Settings: for cardiomyocyte yield: differentiation without rHA / removal of recombinant albumin in CDM3
Procedure: Cardiac differentiation of hiPSCs. hiPSCs and hESCs (>p20) were split at 1:10 or 1:12 ratios using EDTA as above and grown for 4 days at which time they reached ˜85% confluence. Media was changed to CDM3, consisting of RPMI 1640 (11875, Life Technologies), 495 μg/mL Oryza sativa-derived recombinant human albumin (A0237, Sigma-Aldrich, 75 mg/mL stock solution in dH2O, stored at −20° C.), 213 μg/mL L-ascorbic acid 2-phosphate (Sigma-Aldrich, 64 mg/mL stock solution in dH2O, stored at −20° C.). Media was changed every other day (48 h). For d0-d2, media was supplemented with 6 μM CHIR99021 (LC Laboratories, Woburn, Mass., USA). On d2, media was change to CDM3 supplemented with […] Wnt-C59 (Cellagentech, San Diego, Calif., USA). Media was changed on d4 and every other day for CDM3. Contracting cells were noted from d7.
Wnt inhibitors assessed were IWP-2, IWR-1 (Sigma-Aldrich), XAV-939, ICG-001 (Selleck Chemicals), IWP-4 (Stemgent, Cambridge, Mass., USA), and Wnt-C59 (Cellagentech). GSK3B inhibitors assessed were CHIR99021 (LC Laboratories), BIO, TWS119 (Selleck Chemicals), 1-azenkenpaullone, TDZD-8, ARA014418, and 3F8 (all Sigma-Aldrich). Inhibitors used for pathway analysis were PD173074, SB203580, LDN193189, SB431542 (all Selleck Chemicals), SU5402, Dorsomorphin, A83-01 (Tocris, Bristol, UK), ALK5 inhibitor (Stemgent), and ITD-1 (Xcessbio, San Diego, Calif., USA). All small molecules were re-suspended to 10 mM in dimethyl sulfoxide (DMSO).
Flow cytometry. For optimization of cardiac differentiation conditions, cells were cultured in 12-well plates. For analysis of cardiomyocyte differentiation efficacy and subtype specification, expression of TNNT2, MLC2A and MLC2V was analyzed by flow cytometry. At d14-15 of differentiation, the entire well was dissociated with TrypLE Express for 10 min at 37° C. and transferred to flow cytometry tubes (BD Biosciences). Cells were then fixed with 1% PFA for 15 min, permeabilized with 90% methanol for 15 min and stained using 1:200 mouse monoclonal IgG1 TNNT2 (13-11, Thermo Scientific), 1:400 mouse monoclonal IgG2b MLC2A (MYL7, Synaptic Systems) and 1:200 rabbit polyclonal IgG MLC2V (MYL2, ProteinTech) for 45 min at RT. Secondary staining was performed with 1:1000 Alexa Fluor 488 goat anti-mouse IgG1, 1:1000 Alexa Fluor 488 goat anti-rabbit IgG (H+L), 1:1000 Alexa Fluor 647 goat anti-mouse IgG2b and 1:1000 Alexa Fluor 647 goat anti-rabbit IgG (H+L) secondary antibodies for 20 min. […] Cells were analyzed using a FACSAria II (BD Biosciences) with a […] and FACSDiva software. Data were analyzed using FlowJo 8.7 (Tree Star).

rHA: recombinant human albumin, Oryza sativa-derived
quality of contracting monolayers (qualitative) (500 μg/mL rHA): produced the most suitable contracting monolayers
quality of contracting monolayers (qualitative) (750 μg/mL rHA and above): more likely to have more three-dimensional structures
cardiomyocyte yield: drastically reduced
cardiomyocyte yield (listed as recombinant albumin): reduction in cardiomyocyte yield
TNNT2+ cells (differentiation without rHA, entirely protein-free medium): ~65%
